These are literature values, as cited in patent US4489052A, “Quantitative autoradiographic mapping of focal herpes simplex virus encephalitis using a radiolabeled antiviral drug” (priority 1982, dated 1984).

The conditions of the data set: rat; cited from earlier work.

Molecules are shown by their SMILES.

With `Cc1cn([C@@H]2O[C@H](CO)[C@@H](O)[C@@H]2F)c(=O)[nH]c1=O` [FMAU], the excretion in urine result is reported as “most FMAU is excreted unchanged in the urine”.
